# Measurements published in patent publication US7674816B2, “Substituted melatonin derivatives, process for their preparation, and methods of use” (Abraxis BioScience, LLC, priority 2003, dated 2010).
# Test system: rats
# Assay: In vivo hypnotic activity: time to recovery of righting reflex after tail vein injection
# Conditions: 28 μmol/kg (5 mg/kg for propofol), in DMSO
# Protocol: The suspension was centrifuged at 1000×g for 10 minutes at 4° C. The pellet was washed twice in assay buffer and reacted with radioactive ligand in presence or absence of […] at 10^−4 M final concentration. The amount of radioactivity remained on the Whatman filter following filtration of the reaction mix and two washes with assay buffer was determined using a liquid scintillation counter. Inhibition of radioactive ligand binding by melatonin represents the competitive binding of melatonin to the same site as the radioactive ligand. GABAA Cl channel were assayed using ^3H-TBOB. The binding was carried out in the presence of increasing concentration of melatonin and the KD determined graphically using the Hill plots. In vivo hypnotic activity was determined as follow. Drugs solubilized in DMSO were administered to rats by tail vein injection (N=5 rats per group). A dose level of 28 μmol/kg (5 mg/kg for propofol) was used to compensate for differences in molecular weight of the analogs. Anesthetic activity in vivo was determined as time to recovery of righting reflex following administration of the compounds.
compound,measurement,value
COc1ccc2[nH]c(-c3ccccc3)c(CCNC(C)=O)c2c1 [drawing 18],"Anesthesia Activity (Time to awakening, min)",2.5 min
